Source: ChEMBL document CHEMBL1154110, “Identification, structure-activity relationships and molecular modeling of potent triamine and piperazine opioid ligands” (Bioorg Med Chem, 2009)

Sequences of proteins named here, by UniProt entry; tags and fusion partners are left off. A change or cut given only in a name is not applied to a line headed by its entry.
UniProt P41144: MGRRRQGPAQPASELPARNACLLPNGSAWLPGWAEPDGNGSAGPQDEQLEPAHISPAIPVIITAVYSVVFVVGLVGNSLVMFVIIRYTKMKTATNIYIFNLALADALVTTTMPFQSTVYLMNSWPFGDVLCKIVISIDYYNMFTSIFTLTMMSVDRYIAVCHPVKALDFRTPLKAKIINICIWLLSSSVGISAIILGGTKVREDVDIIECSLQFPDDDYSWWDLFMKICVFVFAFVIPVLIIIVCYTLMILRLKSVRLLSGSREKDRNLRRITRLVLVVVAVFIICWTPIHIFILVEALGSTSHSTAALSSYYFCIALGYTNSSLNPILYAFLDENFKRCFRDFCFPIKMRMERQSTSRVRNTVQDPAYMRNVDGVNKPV

Molecular target: Kappa-type opioid receptor (Cavia porcellus, UniProt P41144)
Experiment: Displacement of [3H]U69593 from guinea pig kappa opioid receptor by liquid scintillation counting
In short: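 Receptor membrane suspension incubated with 3 nM [3H]U69,593 as the tritiated competitor. Unlabeled U50,488 served as the kappa standard: it generated a standard curve on every plate and defined nonspecific binding. IC50 values came from dose-response testing.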

CCC[C@H](CN[C@H](CNC)Cc1ccc(O)cc1)NCC1CCCCCC1
IC50: 25 nM
